Test results: ChEMBL document CHEMBL4002575, “Progress in the development of β-lactams as N-Acylethanolamine Acid Amidase (NAAA) inhibitors: Synthesis and SAR study of new, potent N-O-substituted derivatives” (Eur J Med Chem, 2017)

Columns and labels:
[1] = species: Homo sapiens; experiment: Selectivity ratio of IC50 for human acid ceramidase to IC50 for recombinant human spleen NAAA
Summary of the method: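 Ratio of h-AC IC50 to h-NAAA IC50, each the mean of three determinations in fluorogenic assays. The NAAA was recombinant human enzyme overexpressed in HEK293 cells, purified, then activated for 3 h at 37 °C at pH 4.5 (phosphate/citrate, 3 mM DTT, 0.1% Triton X-100). The NAAA substrate was PAMCA (hexadecanamide of 7-amino-4-methylcoumarin).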

[2] = biological target: T1, N-acylethanolamine-hydrolyzing acid amidase (Rattus norvegicus, UniProt Q5KTC7); experiment: Inhibition of rat NAAA expressed in HEK cells after 30 mins; assay type: cell-based
T1 sequence (Q5KTC7 whole entry): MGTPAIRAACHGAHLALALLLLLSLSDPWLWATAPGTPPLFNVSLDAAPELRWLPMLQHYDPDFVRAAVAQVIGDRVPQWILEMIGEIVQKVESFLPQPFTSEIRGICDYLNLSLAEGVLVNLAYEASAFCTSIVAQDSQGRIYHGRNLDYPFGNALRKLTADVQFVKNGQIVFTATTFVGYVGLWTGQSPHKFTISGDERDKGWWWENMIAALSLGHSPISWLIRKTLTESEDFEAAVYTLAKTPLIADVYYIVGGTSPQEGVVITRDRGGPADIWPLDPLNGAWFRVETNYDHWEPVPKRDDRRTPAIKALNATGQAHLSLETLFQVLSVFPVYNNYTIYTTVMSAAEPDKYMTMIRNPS

Structure (SMILES) | Ratio IC50 [1] | IC50 [2]
C[C@H]1[C@H](NC(=O)OCCCCC2CCCCC2)C(=O)N1Oc1ccc(S(C)(=O)=O)cc1 | 340 | 
O=C(N[C@H]1CNC1=O)OCCCCC1CCCCC1 |  | 28 nM
